# Data published in ChEMBL document CHEMBL1142013, “Tryptamine and homotryptamine-based sulfonamides as potent and selective inhibitors of 15-lipoxygenase” (Bioorg Med Chem Lett, 2005).
# Experiments:
# [1] = biological target: T1, Polyunsaturated fatty acid lipoxygenase ALOX15 (Oryctolagus cuniculus, UniProt P12530); assay: Inhibitory concentration against rabbit reticulocyte 15-lipoxygenase with substrate arachidonic acid
# T1 sequence (P12530 whole entry): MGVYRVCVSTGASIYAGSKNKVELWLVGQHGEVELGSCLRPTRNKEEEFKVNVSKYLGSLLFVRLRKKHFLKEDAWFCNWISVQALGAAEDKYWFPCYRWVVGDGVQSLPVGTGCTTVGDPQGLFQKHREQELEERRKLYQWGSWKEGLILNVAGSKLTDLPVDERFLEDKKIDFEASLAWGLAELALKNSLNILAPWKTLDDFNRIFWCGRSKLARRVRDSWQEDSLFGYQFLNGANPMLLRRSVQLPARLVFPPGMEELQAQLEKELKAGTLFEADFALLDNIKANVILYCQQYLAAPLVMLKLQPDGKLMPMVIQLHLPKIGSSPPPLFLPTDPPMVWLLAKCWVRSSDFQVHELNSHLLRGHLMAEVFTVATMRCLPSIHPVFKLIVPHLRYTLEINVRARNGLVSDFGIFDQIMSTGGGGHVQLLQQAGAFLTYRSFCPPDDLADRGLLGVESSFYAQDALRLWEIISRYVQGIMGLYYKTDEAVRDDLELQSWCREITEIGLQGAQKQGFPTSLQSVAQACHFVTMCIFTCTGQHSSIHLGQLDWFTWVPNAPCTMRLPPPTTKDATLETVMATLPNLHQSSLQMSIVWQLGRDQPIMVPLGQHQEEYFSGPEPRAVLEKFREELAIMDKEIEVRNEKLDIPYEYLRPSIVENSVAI
# Summary of the method: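 Purified rabbit reticulocyte 15-LO, isolated from phenylhydrazine-treated rabbits, with arachidonic acid as the substrate. IC50 comes from a colorimetric read-out in which the 15-HPETE product oxidizes Fe²⁺ under mildly acidic conditions. Many values were also verified by the spectrophotometric diene-formation rate (A₂₃₄).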
# [2] = biological target: T1, Polyunsaturated fatty acid lipoxygenase ALOX15; assay: Inhibitory concentration against isolated rabbit reticulocyte 15-lipoxygenase measured in the presence of linoleic acid
# Summary of the method: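 15-LO was purified from reticulocytes of phenylhydrazine-treated rabbits. Linoleic acid was the substrate. In a colorimetric assay, the 13-HPODE product oxidizes Fe²⁺ under mildly acidic conditions, and IC50 is derived from this. Many values were also checked spectrophotometrically by the rate of diene formation (A₂₃₄).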
compound,measurement,setting,value
CCCCCc1ccc(S(=O)(=O)NCCc2c(-c3cc4ccccc4o3)[nH]c3ccccc23)cc1,IC50,[1],21 nM
same,IC50,[2],6 nM
